Data from US5013756A, “Catechol derivatives, a process of preparation thereof, and therapeutical compositions containing the same” (priority 1985, dated 1991).
pIC50: −log10 of the molar value.

The chains behind the UniProt entries cited, without tags or fusion partners. Residues count along the entry.
UniProt P80457, whole entry: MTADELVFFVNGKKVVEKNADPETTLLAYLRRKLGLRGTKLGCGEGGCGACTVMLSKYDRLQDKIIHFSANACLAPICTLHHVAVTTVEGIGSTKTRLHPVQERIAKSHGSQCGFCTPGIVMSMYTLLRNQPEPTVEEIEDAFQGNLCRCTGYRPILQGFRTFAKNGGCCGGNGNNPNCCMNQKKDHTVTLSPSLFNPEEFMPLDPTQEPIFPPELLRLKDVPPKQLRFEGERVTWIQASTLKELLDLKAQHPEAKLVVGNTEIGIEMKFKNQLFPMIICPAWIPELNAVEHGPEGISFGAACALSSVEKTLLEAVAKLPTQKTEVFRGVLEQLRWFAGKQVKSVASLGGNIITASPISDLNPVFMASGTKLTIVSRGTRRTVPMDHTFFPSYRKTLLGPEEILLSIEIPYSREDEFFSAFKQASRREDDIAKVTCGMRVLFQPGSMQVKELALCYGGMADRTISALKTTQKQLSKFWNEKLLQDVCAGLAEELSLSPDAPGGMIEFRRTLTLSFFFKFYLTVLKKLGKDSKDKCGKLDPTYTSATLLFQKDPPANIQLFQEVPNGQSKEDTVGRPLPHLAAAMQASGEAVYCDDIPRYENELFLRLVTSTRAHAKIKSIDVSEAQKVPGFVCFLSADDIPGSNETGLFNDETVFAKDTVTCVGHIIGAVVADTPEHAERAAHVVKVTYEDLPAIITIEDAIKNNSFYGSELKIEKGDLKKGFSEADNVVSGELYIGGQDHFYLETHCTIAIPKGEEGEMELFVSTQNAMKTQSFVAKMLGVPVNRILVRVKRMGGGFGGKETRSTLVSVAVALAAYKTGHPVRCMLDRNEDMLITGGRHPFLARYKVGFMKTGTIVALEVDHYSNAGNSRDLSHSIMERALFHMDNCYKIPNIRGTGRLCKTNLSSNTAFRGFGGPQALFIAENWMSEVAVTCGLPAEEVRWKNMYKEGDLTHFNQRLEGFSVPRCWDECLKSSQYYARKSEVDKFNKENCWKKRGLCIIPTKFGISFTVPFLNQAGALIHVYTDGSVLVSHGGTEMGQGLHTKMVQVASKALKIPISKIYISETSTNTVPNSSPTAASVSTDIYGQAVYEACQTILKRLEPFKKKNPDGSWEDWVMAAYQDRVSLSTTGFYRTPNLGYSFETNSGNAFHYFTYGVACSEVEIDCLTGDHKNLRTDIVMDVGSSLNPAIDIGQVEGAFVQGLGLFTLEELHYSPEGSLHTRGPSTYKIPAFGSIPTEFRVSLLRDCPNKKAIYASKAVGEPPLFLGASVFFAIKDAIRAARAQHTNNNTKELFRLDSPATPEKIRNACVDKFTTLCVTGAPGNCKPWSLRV
UniProt P23219, 24-599: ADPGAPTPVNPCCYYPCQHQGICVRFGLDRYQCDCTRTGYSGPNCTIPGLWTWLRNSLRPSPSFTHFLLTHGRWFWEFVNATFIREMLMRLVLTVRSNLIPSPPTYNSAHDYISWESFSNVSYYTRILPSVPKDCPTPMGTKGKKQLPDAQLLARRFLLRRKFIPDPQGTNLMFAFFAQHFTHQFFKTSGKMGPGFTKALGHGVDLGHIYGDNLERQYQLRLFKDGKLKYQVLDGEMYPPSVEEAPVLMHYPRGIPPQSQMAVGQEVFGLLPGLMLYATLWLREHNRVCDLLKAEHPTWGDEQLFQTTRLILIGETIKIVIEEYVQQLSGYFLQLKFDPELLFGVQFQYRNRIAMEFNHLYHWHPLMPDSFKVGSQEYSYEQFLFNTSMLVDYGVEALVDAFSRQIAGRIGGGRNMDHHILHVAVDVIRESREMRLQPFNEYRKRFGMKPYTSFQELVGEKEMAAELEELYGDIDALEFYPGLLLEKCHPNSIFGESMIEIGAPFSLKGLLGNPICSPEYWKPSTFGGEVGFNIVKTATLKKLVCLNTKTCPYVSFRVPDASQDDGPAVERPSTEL

What was measured:
xanthine oxidase = xanthine oxidase (Bos taurus, UniProt P80457); experiment: In vitro screening of compounds as potential inhibitors of xanthine oxidase; type: biochemical; details: xanthine oxidase 0.01 units/ml, xanthine 5.10^-5 M, pH 7.4
[1] = biological target: T1, cyclooxygenase (human platelets microsomes) (Homo sapiens, UniProt P23219); experiment: Cycloxygenase inhibition in human platelets microsomes; type: biochemical
T1 construct: human platelets microsomes; from tissue; host or cells: human platelet microsomes (microsomal powder)

SMILES | pIC50 (xanthine oxidase) | pIC50 [1]
O=c1c(O)c(-c2ccc(O)cc2)oc2cc(O)cc(O)c12 [Campherol, reference compound] | 5.10 | –
CCCCC1C(=O)N(c2ccccc2)N(c2ccccc2)C1=O [Phenylbutazone, reference compound] | – | 3.56
